{"source": "patent US20120034163A1", "about": "“NON-INVASIVE TOOLS FOR DETECTING VULNERABLE ATHEROSCLEROTIC PLAQUES” (UNIVERSITE JOSEPH FOURIER, priority 2009, published 2012)", "assay": "Organ biodistribution of 99mTc-labelled tracers by gamma-well counting of excised organs", "settings": "180 min following tracer injection; for Organ distribution, Aorta / Organ distribution, Blood / Organ distribution, Fat / Organ distribution, Kidney / Organ distribution, Liver / Organ distribution, Lung / Organ distribution, Skeletal muscle / Organ distribution, Spleen / Organ distribution, Heart: 99mTc-labelled tracer; for Organ distribution, Heart: lateral tail vein; for Organ distribution, Carotid artery, Right: contralateral control carotid; for Organ distribution, Carotid artery, Left: ligated left carotid (atherosclerotic lesion)"}
{"sequence": "HGRENLRILARY [EP35]", "values": [{"measurement": "Organ distribution, Aorta", "value": "0.3 ± 0.0"}, {"measurement": "Organ distribution, Blood", "value": "0.4 ± 0.0"}, {"measurement": "Organ distribution, Fat", "value": "0.1 ± 0.0"}, {"measurement": "Organ distribution, Kidney", "value": "23.6 ± 3.7"}, {"measurement": "Organ distribution, Liver", "value": "2.8 ± 0.5"}, {"measurement": "Organ distribution, Lung", "value": "0.4 ± 0.1"}, {"measurement": "Organ distribution, Skeletal muscle", "value": "0.1 ± 0.0"}, {"measurement": "Organ distribution, Spleen", "value": "0.4 ± 0.1"}, {"measurement": "Organ distribution, Heart", "value": "0.5 ± 0.3"}, {"measurement": "Organ distribution, Carotid artery, Right", "value": "0.4 ± 0.2"}, {"measurement": "Organ distribution, Carotid artery, Left", "value": "0.1 ± 0.0"}]}
{"sequence": "HGRENLRIAARY [EP38]", "values": [{"measurement": "Organ distribution, Aorta", "value": "0.7 ± 0.1"}, {"measurement": "Organ distribution, Blood", "value": "1.2 ± 0.3"}, {"measurement": "Organ distribution, Fat", "value": "0.2 ± 0.1"}, {"measurement": "Organ distribution, Kidney", "value": "20.6 ± 10.8"}, {"measurement": "Organ distribution, Liver", "value": "6.9 ± 1.6"}, {"measurement": "Organ distribution, Lung", "value": "0.9 ± 0.1"}, {"measurement": "Organ distribution, Skeletal muscle", "value": "0.2 ± 0.1"}, {"measurement": "Organ distribution, Spleen", "value": "0.8 ± 0.2"}, {"measurement": "Organ distribution, Heart", "value": "0.3 ± 0.1"}, {"measurement": "Organ distribution, Carotid artery, Right", "value": "0.2 ± 0.1"}, {"measurement": "Organ distribution, Carotid artery, Left", "value": "0.4 ± 0.1"}]}
{"sequence": "HGRENLRILARA [EP36]", "values": [{"measurement": "Organ distribution, Aorta", "value": "0.7 ± 0.2"}, {"measurement": "Organ distribution, Blood", "value": "1.3 ± 0.3"}, {"measurement": "Organ distribution, Fat", "value": "0.3 ± 0.1"}, {"measurement": "Organ distribution, Kidney", "value": "33.1 ± 0.7"}, {"measurement": "Organ distribution, Liver", "value": "4.2 ± 0.6"}, {"measurement": "Organ distribution, Lung", "value": "0.9 ± 0.2"}, {"measurement": "Organ distribution, Skeletal muscle", "value": "0.2 ± 0.1"}, {"measurement": "Organ distribution, Spleen", "value": "0.8 ± 0.2"}, {"measurement": "Organ distribution, Heart", "value": "0.4 ± 0.1"}, {"measurement": "Organ distribution, Carotid artery, Right", "value": "0.4 ± 0.1"}, {"measurement": "Organ distribution, Carotid artery, Left", "value": "0.5 ± 0.1"}]}
